## Apparent affinities of Ab-91 variants for a coronavirus HR2 peptide

All variants were tested on one target, the spike HR2 peptide PDVDLGDISGINAS (SARS-CoV-2).

Ab-91 is the parent antibody, in scFv form: VL, then a 15-residue (Gly4Ser)3 linker, then VH. The light chain is unchanged in all variants.
VL: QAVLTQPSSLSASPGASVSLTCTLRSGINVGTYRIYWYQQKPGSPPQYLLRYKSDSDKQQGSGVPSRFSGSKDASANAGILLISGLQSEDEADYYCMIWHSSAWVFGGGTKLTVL
VH: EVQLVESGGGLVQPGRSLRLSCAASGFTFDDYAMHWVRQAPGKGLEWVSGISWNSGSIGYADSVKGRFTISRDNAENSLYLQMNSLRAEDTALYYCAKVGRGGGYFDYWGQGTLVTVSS

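Phage display of a naive human antibody library on the peptide gave the parent. The library (AAYL51) carries one to three amino acid substitutions per variant, with no insertions or deletions. AlphaSeq pools MATa yeast showing the antibodies with MATalpha yeast showing the peptide. The frequency of each diploid, read from paired DNA barcodes, reflects how well the two displayed proteins bind. Scores were corrected for input abundance and mapped to Kd with protein pairs of known affinity run in the same pool. Mating was done three times.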

Variants are written as CDR1, CDR2 and CDR3 of the heavy chain (limits as in the source). Parent: GFTFDDYAMH, GISWNSGSIGYADSVK, VGRGGGYFDY.
All variants listed here change S55 of the VH, counted from its first residue.
Values are apparent Kd, the geometric mean of the replicates that gave a signal; lower means stronger binding.
A pair that was not seen in any replicate is written "nd"; this usually means weak binding, but a binder can also be missed.
Empty control strains, which show no peptide, gave a signal in 21% of pairings with library AAYL51; the median was 34 µM and 95% of these signals were weaker than 1.8 µM. No background was subtracted. Also given: how often the same scFv was detected with the empty control strains.
In this assay the parent's reference entry averaged 72 nM; its copy inside this library read 7.5 nM.

For GFTFDDYAMH | PISWNMGSIGYADSVK | VGRGGGYFDY, the assay gave 44 µM (1 of 3 replicates; controls 0 of 9). Variant GFTFDDYAHH | GISWNPGSIGYADSVK | VGMGGGYFDY gave nd (0 of 3 replicates; controls 1 of 9). For GFTFDDYSMH | GISWNRYSIGYADSVK | VGRGGGYFDY, the assay gave 8.8 µM (3 of 3 replicates; controls 0 of 9). With GFTFDDYAMH | GISWNFGSIGYADSVK | VGRGGGLFDY the result was 41 µM (1 of 3 replicates; controls 0 of 9). Variant GFWFDDYAMH | GISWNPGSIGYADSVK | VGRGGGYFLY gave 68 µM (1 of 3 replicates; controls 2 of 9). Variant GFTFDDYAMH | GISWNFGSIIYAGSVK | VGRGGGYFDY gave nd (0 of 3 replicates; controls 1 of 9). Variant GFTFDDYAMH | GISWNIGSIGYADSVK | VGRGPGYFDY showed nd (0 of 3 replicates; controls 0 of 9). Variant GFTFDDYAMH | GISWNNGSIGYWDSVK | VGRGGGCFDY gave nd (0 of 3 replicates; controls 1 of 9). With GFTTDDYAMH | GISWNEGSIGYADSVK | VGRGGYYFDY the result was nd (0 of 3 replicates; controls 4 of 9).

For GNTFDDYAMH | GISWNLGSIGRADSVK | VGRGGGYFDY, the assay gave 3.5 µM (1 of 3 replicates; controls 1 of 9). Variant GFTFDDYAMH | GISWNHQSIGYADSVK | QGRGGGYFDY showed nd (0 of 3 replicates; controls 1 of 9). With GFTFDDYAMH | GISWARGSIGYADQVK | VGRGGGYFDY the result was 87 µM (1 of 3 replicates; controls 3 of 9). With GFIFDDYAMH | GISWNMGSIGYADSVP | VGRGGGYFDY the result was 3.6 µM (1 of 3 replicates; controls 2 of 9). Variant GFTFDDYAMH | GISWNIGSIGYHDSVK | VGRGGGYWDY gave nd (0 of 3 replicates; controls 0 of 9). Variant GFEFDDYAMH | GISWNRGSILYADSVK | VGRGGGYFDY showed 4.3 µM (1 of 3 replicates; controls 0 of 9). Variant GFTFDDYAMH | GILWNLGSIGYAKSVK | VGRGGGYFDY gave 170 µM (2 of 3 replicates; controls 3 of 9). For GFTFDDYAMH | GISWNRGSLGYADSVK | VGKGGGYFDY, the assay gave nd (0 of 3 replicates; controls 0 of 9). With GFTFDDYAMH | GESWNMGSIGYADSVK | VGRPGGYFDY the result was 60 µM (1 of 3 replicates; controls 3 of 9).

With GFTFDDYAMH | GISWNEGSIGYADSVV | VGRGGGYNDY the result was 2.8 µM (3 of 3 replicates; controls 1 of 9). With GQTFDDYWMH | GISWNAGSIGYADSVK | VGRGGGYFDY the result was 34 µM (2 of 3 replicates; controls 1 of 9). Variant GFTFDDYAMH | GISWNQGSIGYFDSVK | VGRVGGYFDY showed 210 µM (2 of 3 replicates; controls 1 of 9). Variant GFTFDDYFMH | GISWNQGSIGYADSVK | CGRGGGYFDY showed nd (0 of 3 replicates; controls 1 of 9). With GFTFDDYAMW | GISWNCGSIGYADSVK | VGRGGGYFDY the result was 290 µM (1 of 3 replicates; controls 1 of 9). Variant GFTFDDYAMH | GISWNIGSIGYARGVK | VGRGGGYFDY showed nd (0 of 3 replicates; controls 0 of 9). For GFTFDDFAMH | GISWNMGSIGYADSFK | VGRGGGYFDY, the assay gave 1.8 µM (3 of 3 replicates; controls 0 of 9). Variant GFTPDDYAMH | GTSWNFGSIGYADSVK | VGRGGGYFDY gave 110 µM (2 of 3 replicates; controls 1 of 9). Variant GFTFDDYAMH | GISPNWGSIGYADSVK | VGRGGFYFDY gave 47 µM (2 of 3 replicates; controls 5 of 9).

Variant GFTFDDYAMH | GISWNYGSIRYADSVK | VGRGGGYFGY gave 51 µM (3 of 3 replicates; controls 8 of 9). Variant DFTFDDYAMH | GISWNNGSIGYADSDK | VGRGGGYFDY showed 39 µM (2 of 3 replicates; controls 4 of 9). Variant GFTFDDYAMH | GISWNMGPIGYADSVA | VGRGGGYFDY showed nd (0 of 3 replicates; controls 0 of 9). For GFTFDDMAMH | GISWNRGSIGYADSPK | VGRGGGYFDY, the assay gave 6.2 µM (1 of 3 replicates; controls 2 of 9). With SFTFDDYAMH | GISWNKGSIGYADSVK | VSRGGGYFDY the result was 110 µM (1 of 3 replicates; controls 3 of 9). For GFIFDDYAMH | GISWNLGSIGYADSVK | VGRGGGYCDY, the assay gave 20 µM (1 of 3 replicates; controls 1 of 9). Variant GFTFIDYAMH | GISWNDGSIGYATSVK | VGRGGGYFDY showed nd (0 of 3 replicates; controls 0 of 9). For GFTFDDYAMH | GISWFMGSIGYADSVK | VGRFGGYFDY, the assay gave nd (0 of 3 replicates; controls 1 of 9). For GFTFDDYAMH | GISWNLGSIGYWDSVK | VGFGGGYFDY, the assay gave nd (0 of 3 replicates; controls 1 of 9).

With GFTFDDYAMH | GISWNDGSIGYADSVK | VGRVGGYFDY the result was 270 µM (1 of 3 replicates; controls 1 of 9). With GFTKDDLAMH | GISWNGGSIGYADSVK | VGRGGGYFDY the result was 8.6 nM (3 of 3 replicates; controls 0 of 9). With QFTWDDYAMH | GISWNYGSIGYADSVK | VGRGGGYFDY the result was 6.6 µM (1 of 3 replicates; controls 3 of 9). Variant GFTFDDYAMH | GISWNGGSINYADSVK | VGRGGGYFDY gave nd (0 of 3 replicates; controls 0 of 9). For GFTFDYYAMH | GISWNCGSIGYADSVK | VGRGGGYFDF, the assay gave 7.6 µM (3 of 3 replicates; controls 5 of 9). Variant GFTFDDYAMH | GISWNRGSIGNADSVK | VGRGNGYFDY showed 240 µM (1 of 3 replicates; controls 1 of 9). Variant GFTFDDYAMH | GISWNMGSAGYADSVK | VGRGGGYFDY gave nd (0 of 3 replicates; controls 2 of 9). Variant GFTFDDYAMH | GISWNQGSIGYADSVK | VGRGGGYFDY showed 34 nM (3 of 3 replicates; controls 0 of 9). Variant GFHFDDYAMH | GISWIEGSIGYADSVK | VGRGGGYFDY showed 50 nM (3 of 3 replicates; controls 0 of 9).

With GFTFDDYAMH | GICWNWGTIGYADSVK | VGRGGGYFDY the result was nd (0 of 3 replicates; controls 1 of 9). For YFTFDDYAMH | GISWNDGSIGYAPSVK | VGRGGGYFDY, the assay gave 3.3 µM (2 of 3 replicates; controls 2 of 9). Variant GFTFDRYAMH | GISWNLGSIGYADSVK | VGRGGGYFDY showed 98 nM (3 of 3 replicates; controls 1 of 9). With GFTFDDYAMH | GISWNRGSIGYADSVK | VGHGGGYFDY the result was nd (0 of 3 replicates; controls 1 of 9). Variant GFTFDWYAMH | GISWNHGSIGYADSVK | VGRGGGWFDY gave 280 µM (2 of 3 replicates; controls 2 of 9). Variant GFTHDDYAMH | GISWNTGSIGYACSVK | VGRGGGYFDY showed 16 µM (1 of 3 replicates; controls 0 of 9). With GFTFDDYAWH | GISWNPGSIGYADSVK | VGRGGGYFDY the result was 17 µM (1 of 3 replicates; controls 8 of 9).

Excerpt, the final 6 entries:

YFTFDDYAMH | GISWNDGSIGYAPSVK | VGRGGGYFDY: 3.3 µM (2 of 3 replicates; controls 2 of 9).
GFTFDRYAMH | GISWNLGSIGYADSVK | VGRGGGYFDY: 98 nM (3 of 3 replicates; controls 1 of 9).
GFTFDDYAMH | GISWNRGSIGYADSVK | VGHGGGYFDY: nd (0 of 3 replicates; controls 1 of 9).
GFTFDWYAMH | GISWNHGSIGYADSVK | VGRGGGWFDY: 280 µM (2 of 3 replicates; controls 2 of 9).
GFTHDDYAMH | GISWNTGSIGYACSVK | VGRGGGYFDY: 16 µM (1 of 3 replicates; controls 0 of 9).
GFTFDDYAWH | GISWNPGSIGYADSVK | VGRGGGYFDY: 17 µM (1 of 3 replicates; controls 8 of 9).

Source: Engelhart et al. 2022 (doi:10.1038/s41597-022-01779-4), MIT Lincoln Laboratory and A-Alpha Bio; data file from the FLAb repository.